Target: C-Raf FL (full-length C-Raf with Y340E and Y341E activating mutations) (Homo sapiens (Human), UniProt P04049, Y340E/Y341E)
Format: biochemical
Conditions: full-length c-Raf 4 pM, ATP 3 uM, 10 nM biotinylated MEK1 kinase dead

Sequences of proteins named here, by UniProt entry; tags and fusion partners are left off.
UniProt P04049, whole entry Y340E/Y341E: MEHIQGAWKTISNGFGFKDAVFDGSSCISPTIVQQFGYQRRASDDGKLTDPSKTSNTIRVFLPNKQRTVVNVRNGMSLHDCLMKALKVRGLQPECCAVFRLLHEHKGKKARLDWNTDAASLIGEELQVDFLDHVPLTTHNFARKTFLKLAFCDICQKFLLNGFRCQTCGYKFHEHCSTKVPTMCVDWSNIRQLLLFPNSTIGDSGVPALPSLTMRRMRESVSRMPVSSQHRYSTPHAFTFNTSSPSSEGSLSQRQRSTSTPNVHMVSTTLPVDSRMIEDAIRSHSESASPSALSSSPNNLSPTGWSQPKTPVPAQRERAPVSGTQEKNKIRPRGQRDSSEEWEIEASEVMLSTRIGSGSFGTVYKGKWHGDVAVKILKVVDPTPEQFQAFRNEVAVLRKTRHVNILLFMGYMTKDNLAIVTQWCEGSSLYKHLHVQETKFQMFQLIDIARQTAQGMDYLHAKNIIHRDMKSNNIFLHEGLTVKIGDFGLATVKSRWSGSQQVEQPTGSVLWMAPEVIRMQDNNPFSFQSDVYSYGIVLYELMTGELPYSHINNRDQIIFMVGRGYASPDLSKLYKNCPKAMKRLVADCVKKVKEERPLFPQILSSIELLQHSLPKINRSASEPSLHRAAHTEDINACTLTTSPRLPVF

SMILES	IC50 [nM]
Cc1ccc(NC(=O)c2ccnc(C(C)(C)C#N)c2)cc1-c1ccnc(N2CCOC[C@H]2C)c1 [Example 82, (R)-2-(2-cyanopropan-2-yl)-N-(4-methyl-3-(2-(3-methylmorpholino)pyridin-4-yl)phenyl)isonicotinamide]	1.77
Cc1ccc(NC(=O)c2ccnc(C(C)(C)C#N)c2)cc1-c1ccnc(N2CCO[C@H](CO)C2)c1 [Example 83, (S)-2-(2-cyanopropan-2-yl)-N-(3-(2-(2-(hydroxymethyl)morpholino)pyridin-4-yl)-4-methylphenyl)isonicotinamide]	0.29
CNC[C@@H]1CN(c2cc(-c3cc(NC(=O)c4ccnc(C(C)(C)C#N)c4)ccc3C)ccn2)CCO1 [Example 84, (R)-2-(2-cyanopropan-2-yl)-N-(4-methyl-3-(2-(2-((methylamino)methyl)morpholino)pyridin-4-yl)phenyl)isonicotinamide]	1.22
CC(=O)NC[C@@H]1CN(c2cc(-c3cc(NC(=O)c4ccnc(C(C)(C)C#N)c4)ccc3C)ccn2)CCO1 [Example 85, (R)—N-(3-(2-(2-(acetamidomethyl)morpholino)pyridin-4-yl)-4-methylphenyl)-2-(2-cyanopropan-2-yl)isonicotinamide]	1.34
COC(=O)NC[C@@H]1CN(c2cc(-c3cc(NC(=O)c4cccc(C(F)(F)F)c4)cnc3C)ccn2)CCO1 [Example 86, (R)-methyl ((4-(2-methyl-5-(3-(trifluoromethyl)benzamido)-[3,4′-bipyridin]-2′-yl)morpholin-2-yl)methyl)carbamate]	1.1
Cc1ncc(NC(=O)c2cccc(C(F)(F)F)c2)cc1-c1ccnc(N2CCO[C@H](CNC(=O)CO)C2)c1 [Example 87, (R)—N-(2′-(2-((2-hydroxyacetamido)methyl)morpholino)-2-methyl-[3,4′-bipyridin]-5-yl)-3-(trifluoromethyl)benzamide]	1.5
CC(F)(F)c1cc(C(=O)Nc2c[nH]c(=O)c(-c3ccnc(N4CCOCC4)c3)c2)ccn1 [Example 89, 2-(1,1-difluoroethyl)-N-(2′-morpholino-2-oxo-1,2-dihydro-[3,4′-bipyridin]-5-yl)isonicotinamide]	7690
CCn1cc(C(=O)Nc2ccc(C)c(-c3ccnc(N4CCOCC4)c3)c2)cc(C(F)(F)F)c1=O [Example 94, 1-ethyl-N-(4-methyl-3-(2-morpholinopyridin-4-yl)phenyl)-6-oxo-5-(trifluoromethyl)-1,6-dihydropyridine-3-carboxamide]	0.489
Cc1ncc(NC(=O)c2cccc(C(F)(F)F)c2)cc1-c1ccnc(N2CCOCC2)c1 [Example 96]	0.182
COc1ccc(C(=O)Nc2cnc(C)c(-c3ccnc(N4CCOCC4)c3)c2)cc1C(F)(F)F [Example 97, 4-methoxy-N-(2-methyl-2′-morpholino-[3,4′-bipyridin]-5-yl)-3-(trifluoromethyl)benzamide]	0.998
Cc1ncc(NC(=O)c2cccc(C(F)F)c2)cc1-c1ccnc(N2CCOCC2)c1 [Example 99, 3-(difluoromethyl)-N-(2-methyl-2′-morpholino-[3,4′-bipyridin]-5-yl)benzamide]	0.16
Cc1ncc(NC(=O)c2ccnc(C(C)(F)F)c2)cc1-c1ccnc(N2CCOCC2)c1 [Example 100, 2-(1,1-difluoroethyl)-N-(2-methyl-2′-morpholino-[3,4′-bipyridin]-5-yl)isonicotinamide]	0.522
Cc1ncc(NC(=O)c2cccc(C(C)(F)F)c2)cc1-c1ccnc(N2CCOCC2)c1 [Example 101, 3-(1,1-difluoroethyl)-N-(2-methyl-2′-morpholino-[3,4′-bipyridin]-5-yl)benzamide]	0.253
Cc1ncc(NC(=O)c2ccnc(S(C)(=O)=O)c2)cc1-c1ccnc(N2CCOCC2)c1 [Example 102, N-(2-methyl-2′-morpholino-[3,4′-bipyridin]-5-yl)-2-(methylsulfonyl)isonicotinamide]	3.09
Cc1ccc(NC(=O)c2ccnc(C(C)(C)C#N)c2)cc1-c1cc(C2CCOCC2)nc(N2CCOCC2)c1 [Example 106, 2-(2-cyanopropan-2-yl)-N-(4-methyl-3-(2-morpholino-6-(tetrahydro-2H-pyran-4-yl)pyridin-4-yl)phenyl)isonicotinamide]	0.359
Cc1ccc(NC(=O)c2cccc(C(F)(F)F)c2)cc1-c1cc(C2CCOCC2)nc(N2CCOCC2)c1 [Example 107, N-(4-methyl-3-(2-morpholino-6-(tetrahydro-2H-pyran-4-yl)pyridin-4-yl)phenyl)-3-(trifluoromethyl)benzamide]	0.363
O=C(Nc1cccc(C(F)(F)F)c1)c1ccc(CO)c(-c2ccnc(N3CCOCC3)c2)c1 [Example 108, 4-(hydroxymethyl)-3-(2-morpholinopyridin-4-yl)-N-(3-(trifluoromethyl)phenyl)benzamide]	0.778
O=C(Nc1cccc(C(F)(F)F)c1)c1ccc(C(F)F)c(-c2ccnc(N3CCOCC3)c2)c1 [Example 109, 4-(difluoromethyl)-3-(2-morpholinopyridin-4-yl)-N-(3-(trifluoromethyl)phenyl)benzamide]	0.719

SMILES	IC50 [nM]
O=C(Nc1cccc(C(F)(F)F)c1)c1ccc(CF)c(-c2ccnc(N3CCOCC3)c2)c1 [Example 110, 4-(fluoromethyl)-3-(2-morpholinopyridin-4-yl)-N-(3-(trifluoromethyl)phenyl)benzamide]	0.332
Cc1ccc(C(=O)Nc2cccc(C(F)(F)F)c2)cc1-c1cc(N2CCOCC2)nc(N2CCOCC2)c1 [Example 112, 3-(2,6-dimorpholinopyridin-4-yl)-4-methyl-N-(3-(trifluoromethyl)phenyl)benzamide]	0.5
Cc1ccc(NC(=O)c2cccc(C(F)(F)F)c2)cc1-c1cc(-c2cnn(C)c2)nc(N2CCOCC2)c1 [Example 113, N-(4-methyl-3-(2-(1-methyl-1H-pyrazol-4-yl)-6-morpholinopyridin-4-yl)phenyl)-3-(trifluoromethyl)benzamide]	0.465
Cc1ccc(NC(=O)c2cccc(C(C)(C)C#N)c2)cc1-c1cc(C2CCOCC2)nc(N2CCOCC2)c1 [Example 114, 3-(2-cyanopropan-2-yl)-N-(4-methyl-3-(2-morpholino-6-(tetrahydro-2H-pyran-4-yl)pyridin-4-yl)phenyl)benzamide]	0.285
CCn1cc(C(=O)Nc2ccc(C)c(-c3cc(N4CCOCC4)c(=O)n(C)c3)c2)cc(C(F)(F)F)c1=O [Example 116, 1-ethyl-N-(4-methyl-3-(1-methyl-5-morpholino-6-oxo-1,6-dihydropyridin-3-yl)phenyl)-6-oxo-5-(trifluoromethyl)-1,6-dihydropyridine-3-carboxamide]	0.735
Cc1ccc(NC(=O)c2cccc(C(F)(F)F)c2)cc1-c1cncc(N2CCOCC2)n1 [Example 118, N-(4-methyl-3-(6-morpholinopyrazin-2-yl)phenyl)-3-(trifluoromethyl)benzamide]	0.156
Cc1ccc(NC(=O)c2cccc(C(F)(F)F)c2)cc1-c1c[nH]c(=O)c(N2CCOCC2)n1 [Example 120, N-(4-methyl-3-(6-morpholino-5-oxo-4,5-dihydropyrazin-2-yl)phenyl)-3-(trifluoromethyl)benzamide]	0.187
Cc1ncc(NC(=O)c2cccc(C(F)(F)F)c2)cc1-c1c[nH]c(=O)c(N2CCOCC2)n1 [Example 121, N-(6-methyl-5-(6-morpholino-5-oxo-4,5-dihydropyrazin-2-yl)pyridin-3-yl)-3-(trifluoromethyl)benzamide]	0.599
COc1ncc(N2CCOCC2)cc1-c1cc(NC(=O)c2cccc(C(F)(F)F)c2)ccc1C [Example 122, N-(3-(2-methoxy-5-morpholinopyridin-3-yl)-4-methylphenyl)-3-(trifluoromethyl)benzamide]	0.606
Cc1ccc(NC(=O)c2cccc(C(F)(F)F)c2)cc1-c1cc(N2CCOCC2)cn(C)c1=O [Example 123, N-(4-methyl-3-(1-methyl-5-morpholino-2-oxo-1,2-dihydropyridin-3-yl)phenyl)-3-(trifluoromethyl)benzamide]	4.81
Cc1ncc(NC(=O)c2cccc(C(F)(F)F)c2)cc1-c1cc(N2CCOCC2)cn(C)c1=O [Example 124, N-(1′,2-dimethyl-5′-morpholino-2′-oxo-1′,2′-dihydro-[3,3′-bipyridin]-5-yl)-3-(trifluoromethyl)benzamide]	18
Cc1ccc(NC(=O)c2cccc(C(F)(F)F)c2)cc1-c1cc(N2CCOCC2)c[nH]c1=O [Example 125, N-(4-methyl-3-(5-morpholino-2-oxo-1,2-dihydropyridin-3-yl)phenyl)-3-(trifluoromethyl)benzamide]	6.38
COc1ncc(-c2cc(NC(=O)c3cccc(C(F)(F)F)c3)ccc2C)cc1N1CCOCC1 [Example 126, N-(3-(6-methoxy-5-morpholinopyridin-3-yl)-4-methylphenyl)-3-(trifluoromethyl)benzamide]	0.299
COc1ncc(-c2cc(NC(=O)c3ccnc(C(C)(C)C#N)c3)ccc2C)cc1N1CCOCC1 [Example 128, 2-(2-cyanopropan-2-yl)-N-(3-(6-methoxy-5-morpholinopyridin-3-yl)-4-methylphenyl)isonicotinamide]	0.873
COc1ncc(-c2cc(NC(=O)c3ccnc(C(C)(C)C#N)c3)cnc2C)cc1N1CCOCC1 [Example 129, 2-(2-cyanopropan-2-yl)-N-(6′-methoxy-2-methyl-5′-morpholino-[3,3′-bipyridin]-5-yl)isonicotinamide]	2.33
Cc1ccc(NC(=O)c2cccc(C(F)(F)F)c2)cc1-c1cnc(OC2CCOCC2)c(N2CCOCC2)c1 [Example 132, N-(4-methyl-3-(5-morpholino-6-((tetrahydro-2H-pyran-4-yl)oxy)pyridin-3-yl)phenyl)-3-(trifluoromethyl)benzamide]	0.457
Cc1ncc(NC(=O)c2cccc(C(F)(F)F)c2)cc1-c1cc(N2CCOCC2)c(=O)n(C(C)C)c1 [Example 133, N-(1′-isopropyl-2-methyl-5′-morpholino-6′-oxo-1′,6′-dihydro-[3,3′-bipyridin]-5-yl)-3-(trifluoromethyl)benzamide]	1.94

Source: patent US9242969B2, “Biaryl amide compounds as kinase inhibitors” (Novartis AG, priority 2013, dated 2016)
